Only a part is listed here, and it is no random draw. Active and inactive are the calls of the source.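 How the source made its calls: active means GFP/RFP ratio change of at least 30% with cell ATP level not reduced by more than half and red fluorescence within 50% of control; inactive means the rest, inconclusive results apart.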

The target of this assay is Matrix metalloproteinase-14 (Homo sapiens) (UniProt P50281). Description: MT1-MMP activation inhibitors, cellular reporter – HT1080 RFP-PRO-GFP cells, GFP/RFP fluorescence, primary screen (AID 651647). Particulars: overnight, at 20 µM, active compounds read high, percent of plate control window, DMSO zero. Put shortly:
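Read-out: GFP/RFP fluorescence ratio; Test system: RFP-PRO-GFP reporter HT1080 cells; Compound dosing: single-point 20 µM compound, 1% DMSO; Times: overnight compound exposure at 37 °C.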
With `N#CC1(Nc2ccccc2)CCN(CCc2ccccc2)CC1`, the GFP/RFP ratio change is inactive: 0.805%.
In the case of `O=c1[nH]c2ccccc2n1C1CCN(C(c2ccccc2OC(F)(F)F)c2nnnn2C2CCCC2)CC1` (configuration not stated) it was inactive: 1.76%; in that of `CCN1CCC(Nc2ccc(Cl)cc2)CC1`, inactive: -1.24%.
With `CSc1ccc(C(=O)NCC2(N3CCOCC3)CCCCC2)cc1`, the GFP/RFP ratio change is inactive: 2.2%.
Next, `O=C(NCC1(N2CCCCC2)CCCCC1)c1cccc([N+](=O)[O-])c1`: inactive: -0.174%; `O=C(NCC1(N2CCCCC2)CCCCC1)c1ccc(OC(F)F)cc1`: inactive: 0.487%; `CC(C)(C)n1nnnc1C(c1ccccc1OC(F)(F)F)N1CCC(n2c(=O)[nH]c3ccccc32)CC1` (configuration not stated): inactive: 0.539%.
In the case of `COc1cc(C(=O)NCC2(N3CCCCC3)CCCCC2)ccc1OC(F)F` it was inactive: 0.0548%; in that of `O=C(NCC1(N2CCOCC2)CCCCC1)c1cc(=O)[nH]c2ccccc12`, inactive: -2.76%; in that of `CCCCn1nnnc1C(c1cccc2ccccc12)N1CCC(n2c(=O)[nH]c3ccccc32)CC1` (configuration not stated), inactive: 6.41%.
With `CN1CCN(CCOC(=O)C(O)(c2ccccc2)c2ccccc2)CC1`, the GFP/RFP ratio change is inactive: -1.1%.
In the case of `COc1ccc(NC2CCN(C(=O)OC(C)(C)C)CC2)cc1` it was inactive: 4.1%.
In the case of `CC(C)c1ccc(C(=O)NCC2(N3CCOCC3)CCCCC2)cc1` it was inactive: -1.07%.
Next, `O=C(NCC1(N2CCCCC2)CCCCC1)c1cccc(C(F)(F)F)c1`: inactive: 2.64%.
In the case of `CCC(c1nnnn1C(C)(C)C)N1CCC(n2c(=O)[nH]c3ccccc32)CC1` (configuration not stated), the GFP/RFP ratio change is inactive: -2.13%.
Take `O=C(NCC1(N2CCOCC2)CCCCC1)c1cc(F)c(F)cc1Cl`: the GFP/RFP ratio change was inactive: 2.82%.
For the molecule `COc1cc(OC)c(C(=O)NCC2(N(C)C)CCCCC2)cc1OC`, the GFP/RFP ratio change was inactive: 3.24%.
As to `CCCCn1nnnc1C(c1ccnc2ccccc12)N1CCC(n2c(=O)[nH]c3ccccc32)CC1` (configuration not stated), the GFP/RFP ratio change is inactive: 1.96%.
Next, `CC(C)c1ccc(NC2CCN(C(=O)OC(C)(C)C)CC2)cc1`: inactive: -6.52%; `CCCCn1nnnc1C(c1ccccc1OC(F)(F)F)N1CCC(n2c(=O)[nH]c3ccccc32)CC1` (configuration not stated): inactive: -3.66%; `CN(C)c1cccc(C(=O)NCC2(N3CCCCC3)CCCCC2)c1`: inactive: 0.933%.
With `COc1ccc(CN(CCCl)CCCl)cc1Cl`, the GFP/RFP ratio change is inactive: 3.05%.
`COc1ccc(C(c2nnnn2C2CCCC2)N2CCC(n3c(=O)[nH]c4ccccc43)CC2)cc1` (configuration not stated): the GFP/RFP ratio change is inactive: 4.2%.
`CCCOc1ccc(C(=O)NCC2(N(C)C)CCCCC2)cc1OC`: the GFP/RFP ratio change was inactive: 5.2%.
Next, `Cc1ccc(C(=O)NCC2(N(C)C)CCCCC2)o1`: inactive: 3.72%; `O=C(NCC1(N2CCCCC2)CCCCC1)c1cncc(Br)c1`: inactive: -1.87%.
Next, `CN1CCC(Nc2cccc(F)c2)CC1`: inactive: 0.176%.
Next, `Cc1cccc(NC2(C#N)CCN(Cc3ccccc3)CC2)c1`: inactive: -0.542%.
For the molecule `CSc1ccccc1C(=O)NCC1(N2CCCCC2)CCCCC1`, the GFP/RFP ratio change is inactive: -1.12%.
In the case of `CCC(c1nnnn1C1CCCC1)N1CCC(n2c(=O)[nH]c3ccccc32)CC1` (configuration not stated), the GFP/RFP ratio change is inactive: 2.45%.
Regarding `COc1ccc(C(=O)NCC2(N3CCCCC3)CCCCC2)c(OC)c1OC`, the GFP/RFP ratio change is inactive: 0.404%.
In the case of `CC(C)(C)OC(=O)N1CCC(N(C(=O)c2ccccc2)c2ccc(F)cc2)CC1` it was inactive: -0.243%; in that of `COc1ccc(C(=O)NCC2(N3CCCCC3)CCCCC2)cc1`, inactive: 0.835%; in that of `CCCCn1nnnc1C(c1cccs1)N1CCC(n2c(=O)[nH]c3ccccc32)CC1` (configuration not stated), inactive: 8.27%.
Next, `CCCCn1nnnc1C(CC)N1CCC(n2c(=O)[nH]c3ccccc32)CC1` (configuration not stated): inactive: -1.69%; `O=C(NCC1(N2CCCCC2)CCCCC1)c1cccs1`: inactive: 3.94%.
Take `O=C(NCC1(N2CCCCC2)CCCCC1)c1ccc(=O)[nH]c1`: the GFP/RFP ratio change is inactive: -3.78%.
Next, `COc1ccc(Cl)cc1C(=O)NCC1(N2CCOCC2)CCCCC1`: inactive: 0.946%; `O=C(OC1CN2CCC1CC2)C1c2ccccc2Oc2ccccc21` (configuration not stated): inactive: -25.1%; `O=c1[nH]c2ccccc2n1C1CCN(C(c2cc3ccccc3o2)c2nnnn2C2CCCCC2)CC1` (configuration not stated): inactive: -9.14%.
Consider `N#CC1(Nc2ccccc2)CCN(Cc2ccccc2)CC1`, for which the GFP/RFP ratio change is inactive: 1.29%.
As to `O=C(NCC1(N2CCCCC2)CCCCC1)c1ccc(Cl)s1`, the GFP/RFP ratio change was inactive: -2.65%.
Next, `CCCCn1nnnc1C(c1ccc(OC)cc1)N1CCC(n2c(=O)[nH]c3ccccc32)CC1` (configuration not stated): inactive: -0.71%.
In the case of `CCOC(=O)N1CCC(Nc2ccc(OC)cc2)CC1`, the GFP/RFP ratio change was inactive: -0.915%.
`Cc1cc(C)cc(N(C(=O)c2ccccc2)C2CCN(C(=O)OC(C)(C)C)CC2)c1`: the GFP/RFP ratio change was inactive: -4.27%.
As to `O=c1[nH]c2ccccc2n1C1CCN(C(c2ccccc2OC(F)(F)F)c2nnnn2C2CCCCC2)CC1` (configuration not stated), the GFP/RFP ratio change was inactive: 0.558%.
Next, `O=C(NCC1(N2CCCCC2)CCCCC1)c1ccc(Cl)nc1`: inactive: -0.0698%; `O=C(NCC1(N2CCOCC2)CCCCC1)c1cc2ccccc2o1`: inactive: 0.929%; `COc1ccc(NC2CCN(CCc3ccccc3)CC2)c(OC)c1`: inactive: 5.54%.
In the case of `CCOC(=O)N1CCC(Nc2ccc(F)cc2)CC1`, the GFP/RFP ratio change was inactive: 3.07%.
Consider `O=C(NCC1(N2CCCCC2)CCCCC1)c1ccc(F)cc1`, for which the GFP/RFP ratio change is inactive: -5.76%.
On to `O=P1(N(CCCl)CCCl)SCCCS1`, for which the GFP/RFP ratio change is inactive: 0.524%.
Next, `CCCCn1nnnc1C(c1cc2ccccc2o1)N1CCC(n2c(=O)[nH]c3ccccc32)CC1` (configuration not stated): inactive: 4.39%; `CCCCOc1ccc(C(=O)NCC2(N3CCOCC3)CCCCC2)cc1`: inactive: 4.69%; `O=C1CCN(Cc2ccccc2)CC1`: inactive: -1.48%.
With `CC(C)(C)n1nnnc1C(c1ccccc1)N1CCC(n2c(=O)[nH]c3ccccc32)CC1` (configuration not stated), the GFP/RFP ratio change was inactive: -0.931%.
As for `CCOc1ccc(C)cc1CN(CCCl)CCCl`, the GFP/RFP ratio change is inactive: -0.382%.
In the case of `COc1cc(C(=O)NCC2(N(C)C)CCCCC2)ccc1OC(F)F` it was inactive: 1.87%.
In the case of `CCOC(=O)N1CCC(Nc2cccc(C)c2)CC1` it was inactive: 0.573%; in that of `O=c1[nH]c2ccccc2n1C1CCN(C(c2cccc3ccccc23)c2nnnn2C2CCCC2)CC1` (configuration not stated), inactive: -0.28%; in that of `O=c1[nH]c2ccccc2n1C1CCN(C(c2ccccc2)c2nnnn2C2CCCCC2)CC1` (configuration not stated), inactive: 1.67%.
With `Fc1ccccc1NC1CCN(Cc2ccccc2)CC1`, the GFP/RFP ratio change was inactive: -1.99%.
As for `Cc1ccc(C(=O)NCC2(N3CCCCC3)CCCCC2)o1`, the GFP/RFP ratio change is inactive: -0.861%.
In the case of `Cc1ccc(NC2(C#N)CCN(Cc3ccccc3)CC2)cc1` it was inactive: 0.768%.
Next, `CCC(c1nnnn1C1CCCCC1)N1CCC(n2c(=O)[nH]c3ccccc32)CC1` (configuration not stated): inactive: -3.86%; `CC(=O)N(c1ccccc1)C1CCNCC1`: inactive: -4.79%; `COc1cccc(C(c2nnnn2C2CCCCC2)N2CCC(n3c(=O)[nH]c4ccccc43)CC2)c1OC` (configuration not stated): inactive: -1.66%.
Turning to `O=c1[nH]c2ccccc2n1C1CCN(C(c2ccnc3ccccc23)c2nnnn2C2CCCCC2)CC1` (configuration not stated), the GFP/RFP ratio change is inactive: 4.85%.
In the case of `COc1cc(OC)cc(C(=O)NCC2(N3CCCCC3)CCCCC2)c1` it was inactive: 2%; in that of `Cn1c(=O)[nH]cc(N(CCCl)CCCl)c1=O`, inactive: 2.45%.
With `CN(C)c1ccc(C(=O)NCC2(N3CCCCC3)CCCCC2)cc1`, the GFP/RFP ratio change was inactive: 5.09%.
Next, `O=C(NCC1(N2CCCCC2)CCCCC1)c1ccco1`: inactive: 3.47%.
In the case of `CC(C)(C)n1nnnc1C(c1ccnc2ccccc12)N1CCC(n2c(=O)[nH]c3ccccc32)CC1` (configuration not stated) it was inactive: 1.76%; in that of `COc1ccc(C(c2nnnn2C2CCCCC2)N2CCC(n3c(=O)[nH]c4ccccc43)CC2)cc1` (configuration not stated), inactive: -2.92%; in that of `CCN1CCC(Nc2cccc(F)c2)CC1`, inactive: -1.51%.
In the case of `Cc1ccccc1NC1(C#N)CCN(Cc2ccccc2)CC1` it was inactive: -1.23%.
Take `O=C(O)C1(Nc2ccccc2)CCN(Cc2ccccc2)CC1`: the GFP/RFP ratio change is inactive: -2.7%.
Next, `NN(c1ccccc1)C1CCN(CCc2ccccc2)CC1`: inactive: 1.04%.
In the case of `CC(C)(C)OC(=O)N1CCC(Nc2ccccc2)CC1` it was inactive: -1.54%.
Next, `CCCOc1ccc(C(=O)NCC2(N(C)C)CCCCC2)cc1`: inactive: 1.76%.
On to `O=c1[nH]c2ccccc2n1C1CCN(C(c2cc3ccccc3o2)c2nnnn2C2CCCC2)CC1` (configuration not stated), for which the GFP/RFP ratio change was inactive: -1.92%.
In the case of `CN1CCC(Nc2ccc(F)c(Cl)c2)CC1` it was inactive: 1.04%.
In the case of `CCOc1ncccc1C(=O)NCC1(N2CCOCC2)CCCCC1` it was inactive: 0.472%.
For the molecule `CN1CCC(Nc2ccc(Cl)cc2)CC1`, the GFP/RFP ratio change is inactive: -0.349%.
On to `COc1cccc(C(c2nnnn2C2CCCC2)N2CCC(n3c(=O)[nH]c4ccccc43)CC2)c1OC` (configuration not stated), for which the GFP/RFP ratio change was inactive: 1.71%.
In the case of `COc1cc(OC)cc(C(=O)NCC2(N3CCOCC3)CCCCC2)c1` it was inactive: 3.07%; in that of `COc1cccc(C(=O)N(c2cc(C)cc(C)c2)C2CCN(C(=O)OC(C)(C)C)CC2)c1`, inactive: -5.31%; in that of `CCC(CO)(C(=O)OC1CN2CCC1CC2)c1ccccc1` (configuration not stated), inactive: -5.04%.
Next, `O=c1[nH]c2ccccc2n1C1CCN(C(c2cccs2)c2nnnn2C2CCCCC2)CC1` (configuration not stated): inactive: 4.33%; `O=c1[nH]c2ccccc2n1C1CCN(C(c2ccnc3ccccc23)c2nnnn2C2CCCC2)CC1` (configuration not stated): inactive: 0.862%.
For the molecule `COc1ccc(C(=O)NCC2(N3CCOCC3)CCCCC2)cc1OC`, the GFP/RFP ratio change is inactive: -0.0308%.
Next, `COc1cc(C(=O)NCC2(N3CCOCC3)CCCCC2)cc(OC)c1C`: inactive: -3.82%; `CCCCn1nnnc1C(c1ccccc1)N1CCC(n2c(=O)[nH]c3ccccc32)CC1` (configuration not stated): inactive: 3.55%; `O=C(NCC1(N2CCOCC2)CCCCC1)c1cc(Br)ccc1Cl`: inactive: 3.46%.
Next, `O=c1[nH]c2ccccc2n1C1CCN(C(c2cccs2)c2nnnn2C2CCCC2)CC1` (configuration not stated): inactive: 0.939%; `O=C(OC1CN2CCC1CC2)C1c2ccccc2C=Cc2ccccc21` (configuration not stated): inactive: -10.8%.
For the molecule `CCCCn1nnnc1C(c1cccc(OC)c1OC)N1CCC(n2c(=O)[nH]c3ccccc32)CC1` (configuration not stated), the GFP/RFP ratio change was inactive: -1.53%.
Next, `COc1cccc(C(c2nnnn2C(C)(C)C)N2CCC(n3c(=O)[nH]c4ccccc43)CC2)c1OC` (configuration not stated): inactive: 3.58%; `CCOC(=O)N1CCC(Nc2ccc(C)cc2)CC1`: inactive: 4.24%.
In the case of `N/C(=N\O)c1c(N)no[n+]1[O-]`, the GFP/RFP ratio change was inactive: -2.7%.
For `N#Cc1ccc(C(=O)NCC2(N3CCCCC3)CCCCC2)cc1`, the GFP/RFP ratio change is inactive: 2.35%.
In the case of `CC(C)(C)n1nnnc1C(c1cccc2ccccc12)N1CCC(n2c(=O)[nH]c3ccccc32)CC1` (configuration not stated) it was inactive: -2.48%; in that of `CN(C)C1(CNC(=O)c2cccc(C#N)c2)CCCCC1`, inactive: 2.36%.
In the case of `CCCN1CCC(Nc2cc(OC)cc(OC)c2)CC1`, the GFP/RFP ratio change is inactive: -0.704%.
Take `O=c1[nH]c2ccccc2n1C1CCN(C(c2ccccc2)c2nnnn2C2CCCC2)CC1` (configuration not stated): the GFP/RFP ratio change was inactive: 1.06%.
Consider `Cc1cc(N(CCCl)CCCl)ccc1C=O`, for which the GFP/RFP ratio change is inactive: 3.19%.
Next, `c1ccc(CN2CCC(Nc3ccccc3)CC2)cc1`: inactive: -2.9%.
